Assay results taken from PubChem BioAssay AID2105 (Johns Hopkins Ion Channel Center, 2009).
This is a selection; strong and weak results do not stand in their true shares. Active and inactive are the calls of the source.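 How the source made its calls: active means dye signal at least 3 control SD above or below untreated wells in both duplicates, raw fluorescence within 3, either direction; inactive means the rest.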

Assay: nonspecific thallium flux effects in parental HEK293 cells, confirmation, counter-screen for Kir2.1 inhibitor project, cell-based, FluxOR thallium flux, duplicate, single concentration (AID 2105)
Conditions: FluxOR thallium flux fluorescence, at 10 µM

Compound | outcome
c1ccc(CN2CCC(Nc3ccccc3)CC2)cc1 | inactive
